Assay results as given in ChEMBL document CHEMBL5338767, “A Molecular Toolbox of Positron Emission Tomography Tracers for General Anesthesia Mechanism Research” (J Med Chem, 2023).

Key:
[1] = Drug distribution in human cingulate cortex assessed as dissociation constant
[2] = Drug distribution in human cerebellum assessed as dissociation constant
[3] = Drug distribution in human caudate nucleus assessed as maximum binding
[4] = Drug distribution in human temporal cortex assessed as dissociation constant
[5] = Drug distribution in human caudate nucleus assessed as dissociation constant
[6] = Drug distribution in human parietal cortex assessed as maximum binding
[7] = Dissociation constant, pKa of the compound; assay type: physicochemical
[8] = Drug distribution in human occipital cortex assessed as maximum binding
[9] = Drug distribution in human frontal cortex assessed as dissociation constant
[10] = Drug distribution in human brain assessed as dissociation constant
[11] = Drug distribution in human parietal cortex assessed as dissociation constant
[12] = Drug distribution in human temporal cortex assessed as maximum binding
[13] = Drug distribution in human cerebellum assessed as maximum binding
[14] = Drug distribution in human brain assessed as maximum binding
[15] = Drug distribution in human frontal cortex assessed as maximum binding
[16] = Drug distribution in human occipital cortex assessed as dissociation constant
[17] = Drug distribution in human cingulate cortex assessed as maximum binding

CC(C)(O)[C@H]1C[C@@]23CC[C@]1(O[11CH3])[C@@H]1Oc4c(O)ccc5c4[C@@]12CCN(CC1CC1)[C@@H]3C5
Kd [1]: 1060 pM | Kd [2]: 690 pM | Bmax [3]: 19.9 nM | Kd [4]: 860 pM | Kd [5]: 1160 pM | Bmax [6]: 12 nM | pKa [7]: 9.48 | Bmax [8]: 2.3 nM | Kd [9]: 680 pM | Kd [10]: 730 pM | Kd [11]: 760 pM | Bmax [12]: 13.4 nM | Bmax [13]: 6.8 nM | Bmax [14]: 18.6 nM | Bmax [15]: 13.1 nM | Kd [16]: 880 pM | Bmax [17]: 20.5 nM
